For one molecule, percent compound remaining results are on record in US12180176B2, “Fluorinated empathogens” (priority 2021, dated 2024).

This series is described as follows: Metabolic stability in human liver microsomes. The series is classed as in vitro ADME.

Structures are written as SMILES.

Regarding `CCNC(C)Cc1ccc2c(c1)OCO2` (stereo not drawn), the percent compound remaining runs as follows: (Time 0.0) 100.0%; (Time 15.00) 97.15%; (Time 30.00) 88.20%; (Time 45.00) 84.45%; (Time 60.00 (one hour of incubation), listed as ASR-1003) 75.55%; (Time 60.00 (one hour of incubation), listed as MIDEA) 7600%.
